pKi: −log10 of the molar value. Read-outs that look alike come from different tables or passages of the source.
Assays:
human H3 receptor [1] = biological target: T1, human H3 receptor (Homo sapiens, UniProt Q9Y5N1); assay: Cyclic AMP accumulation (β-galactosidase reporter, Schild analysis); assay type: cell-based; settings: histamine agonist, forskolin 5 μM, Schild regression of pEC50 values
T1 construct: expressed in transfected cells
Protocol: Sublines of SK-N-MC cells were created that expressed a reporter construct and the human H3 receptor. The reporter gene (β-galactosidase) is under the control of multiple cyclic AMP responsive elements. In 96-well plates, histamine was added directly to the cell media followed 5 min later by an addition of forskolin (5 μM final concentration). When appropriate, antagonists were added 10 min prior to agonist addition. After a 6-h incubation at 37° C., the media was aspirated and the cells washed with 200 μL of phosphate-buffered saline followed by a second aspiration. Cells were lysed with 25 μL 0.1× assay buffer (10 mM Na-phosphate, pH 8, 0.2 mM MgSO4, 0.01 mM MnCl2) and incubated at rt for 10 min. Cells were then incubated for 10 min with 100 μL of 1× assay buffer containing 0.5% Triton and 40 mM β-mercaptoethanol. Color was developed using 25 μL of 1 mg/mL substrate solution (chlorophenolred β-D galactopyranoside; Roche Molecular Biochemicals, Indianapolis, In.).

Sequences of proteins named here, by UniProt entry; tags and fusion partners are left off. A change or cut given only in a name is not applied to a line headed by its entry.
UniProt Q9Y5N1: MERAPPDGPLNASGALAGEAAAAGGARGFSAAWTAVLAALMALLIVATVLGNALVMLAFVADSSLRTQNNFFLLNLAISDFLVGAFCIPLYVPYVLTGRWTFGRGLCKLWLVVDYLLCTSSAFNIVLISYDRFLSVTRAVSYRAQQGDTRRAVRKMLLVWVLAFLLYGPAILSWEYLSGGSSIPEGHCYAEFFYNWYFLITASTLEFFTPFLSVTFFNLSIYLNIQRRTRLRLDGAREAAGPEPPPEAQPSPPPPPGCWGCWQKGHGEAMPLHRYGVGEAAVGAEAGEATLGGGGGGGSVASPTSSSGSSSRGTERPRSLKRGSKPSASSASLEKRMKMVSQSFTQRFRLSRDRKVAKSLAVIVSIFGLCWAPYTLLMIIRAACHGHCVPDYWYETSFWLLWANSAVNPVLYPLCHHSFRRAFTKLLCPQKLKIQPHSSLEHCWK
UniProt P31652, whole entry: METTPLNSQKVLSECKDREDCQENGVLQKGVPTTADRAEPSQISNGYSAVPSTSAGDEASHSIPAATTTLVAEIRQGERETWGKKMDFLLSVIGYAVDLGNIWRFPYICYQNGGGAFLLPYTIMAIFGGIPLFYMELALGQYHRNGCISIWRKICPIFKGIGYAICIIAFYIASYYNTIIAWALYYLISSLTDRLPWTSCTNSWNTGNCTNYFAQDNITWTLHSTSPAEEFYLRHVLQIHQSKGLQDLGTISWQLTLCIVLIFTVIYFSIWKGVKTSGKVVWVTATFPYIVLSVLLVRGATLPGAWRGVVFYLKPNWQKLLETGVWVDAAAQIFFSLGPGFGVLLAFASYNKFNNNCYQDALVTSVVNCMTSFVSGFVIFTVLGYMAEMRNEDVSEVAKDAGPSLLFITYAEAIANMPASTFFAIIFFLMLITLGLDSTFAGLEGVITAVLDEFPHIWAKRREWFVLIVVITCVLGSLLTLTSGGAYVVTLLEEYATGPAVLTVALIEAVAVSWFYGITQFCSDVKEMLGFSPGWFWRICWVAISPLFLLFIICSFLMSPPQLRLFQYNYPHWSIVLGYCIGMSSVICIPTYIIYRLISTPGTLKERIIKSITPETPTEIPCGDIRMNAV

Rat SERT = biological target: T2, Rat SERT (Rattus norvegicus, UniProt P31652); assay: Rat brain SERT binding ([3H]-citalopram displacement); settings: rat brain membranes without cerebellum, 0.6 nM [3H]-citalopram, 60 min at 25° C.
T2 construct: A rat brain without cerebellum (Zivic Laboratories, Inc.—Pittsburgh, Pa.) was homogenized; tissue Zivic Laboratories, Inc; host or cells: rat brain without cerebellum, membranes
Protocol: The supernatant was removed and re-centrifuged at 15,000 rpm for 30 min. […] Membranes were incubated with 0.6 nM [^3H]-Citalopram plus/minus test compounds for 60 min at 25° C. and harvested by rapid filtration over GF/C glass fiber filters (pretreated with 0.3% polyethylenimine) followed by four washes with ice-cold buffer.

human H3 receptor [2] = biological target: T1, human H3 receptor; assay: H3 receptor binding (N-[3H]-α-methylhistamine displacement); settings: membranes of SK-N-MC cells expressing cloned human H3 receptor, 0.8 nM N-[3H]-α-methylhistamine, 60 min at 25° C.
Protocol: Briefly, cell pellets from SK-N-MC cells expressing the human H3 receptor were homogenized in 50 mM Tris-HCl/5 mM EDTA and re-centrifuged at 30,000 g for 30 min. Pellets were re-homogenized in 50 mM Tris/6 mM EDTA (pH 7.4). Membranes were incubated with 0.8 nM N-[^3H]-α-methylhistamine plus/minus test compounds for 60 min at 25° C. and harvested by rapid filtration over GF/C glass fiber filters (pretreated with 0.3% polyethylenimine) followed by four washes with ice-cold buffer. Nonspecific binding was defined in the presence of 10 μM histamine.

[3] = SK-N-MC cells expressing human H3 receptor and CRE-β-galactosidase reporter, read-out: pA2 (converted)

| SMILES | Kb (human H3 receptor [1]; [3]) [nM] | pKi (Rat SERT) | pKi (human H3 receptor [2]) | other results |
| --- | --- | --- | --- | --- |
| COc1ccc(C2CN(C)Cc3cc(OCCCN4CCC(F)CC4)ccc32)cc1 (single isomer, unassigned) [Example 1B, 7-[3-(4-Fluoro-piperidin-1-yl)-propoxy]-4-(4-methoxy-phenyl)-2-methyl-1,2,3,4-tetrahydro-isoquinoline] | 1.26 |  |  |  |
| COc1ccc(C2CN(C)Cc3cc(OCCCN4CCCC(F)(F)C4)ccc32)cc1 (single isomer, unassigned) [Example 29A, 7-[3-(3,3-Difluoro-piperidin-1-yl)-propoxy]-4-(4-methoxy-phenyl)-2-methyl-1,2,3,4-tetrahydro-isoquinoline] |  |  | 7.46 |  |
| COc1ccc(C2CN(C)Cc3cc(OCCCN4CCCC(F)(F)C4)ccc32)cc1 (racemic) [Example 29, 7-[3-(3,3-Difluoro-piperidin-1-yl)-propoxy]-4-(4-methoxy-phenyl)-2-methyl-1,2,3,4-tetrahydro-isoquinoline] |  |  | 8.15 |  |
| CN1Cc2cc(OCCCN3CCC(F)CC3)ccc2C(c2ccc(S(C)(=O)=O)cc2)C1 (stereo not shown) [Example 51, 7-[3-(4-Fluoro-piperidin-1-yl)-propoxy]-4-(4-methanesulfonyl-phenyl)-2-methyl-1,2,3,4-tetrahydro-isoquinoline] |  |  | 8.70 | Kb (human H3 receptor [1]; pA2, SK-N-MC cells expressing human H3 receptor and CRE-β-galactosidase reporter): 0.501 nM |
| COc1ccc(C2CN(C)Cc3cc(OCCCN4CCC(F)CC4)ccc32)cc1 (single isomer, unassigned) [Example 1A, 7-[3-(4-Fluoro-piperidin-1-yl)-propoxy]-4-(4-methoxy-phenyl)-2-methyl-1,2,3,4-tetrahydro-isoquinoline] | 3.98 |  | 8.70 |  |
| COc1ccc(C2CN(C)Cc3cc(OCCCN4CCC(F)CC4)ccc32)cc1 (racemic) [Example 1, 7-[3-(4-Fluoro-piperidin-1-yl)-propoxy]-4-(4-methoxy-phenyl)-2-methyl-1,2,3,4-tetrahydro-isoquinoline] | 2.51 |  | 8.70 |  |
| COc1ccc(C2CN(C)Cc3cc(OCCCN4CCCC(F)(F)C4)ccc32)cc1 (single isomer, unassigned) [Example 29B, 7-[3-(3,3-Difluoro-piperidin-1-yl)-propoxy]-4-(4-methoxy-phenyl)-2-methyl-1,2,3,4-tetrahydro-isoquinoline] |  |  | 7.89 |  |

More lines, main results first:

| Kb (human H3 receptor [1]; [3]) [nM] | pKi (Rat SERT) | pKi (human H3 receptor [2]) | SMILES | other results |
| --- | --- | --- | --- | --- |
|  | 8.40 |  | COc1ccc(C2CN(C)Cc3cc(OCCCN4CCCCC4)ccc32)cc1 (racemic) [Example 61, 4-(4-Methoxy-phenyl)-2-methyl-7-(3-piperidin-1-yl-propoxy)-1,2,3,4-tetrahydro-isoquinoline] |  |
|  | 8.00 |  | COc1ccc(C2CN(C)Cc3cc(OCCCN4CCCCC4)ccc32)cc1 (single isomer, unassigned) [Example 62, 4-(4-Methoxy-phenyl)-2-methyl-7-(3-piperidin-1-yl-propoxy)-1,2,3,4-tetrahydro-isoquinoline] |  |
|  | 9.00 |  | COc1ccc(C2CN(C)Cc3cc(OCCCN4CCCCC4)ccc32)cc1 (single isomer, unassigned) [Example 63, 4-(4-Methoxy-phenyl)-2-methyl-7-(3-piperidin-1-yl-propoxy)-1,2,3,4-tetrahydro-isoquinoline] |  |

Reference: patent US20060194837A1, “Tetrahydroisoquinoline compounds” (priority 2004, published 2006)
